Results: article PMC8645912 (ESMO Open, 2021)

Key:
[1] = Cabozantinib plasma PK monitoring; assay type: in vivo, human; conditions: whole population; from population PK model
[2] = cited from earlier work

## COc1cc2nccc(Oc3ccc(NC(=O)C4(C(=O)Nc5ccc(F)cc5)CC4)cc3)c2cc1OC [cabozantinib]
[1]
  Mean Cl/F (SD): 2.5 (1.2) l/h
  Median Cl/F (IQR): 2.3 (1.7-3.2) l/h
[2]; 20 mg starting dose
  Hazard ratio for risk of progression versus 60 mg daily starting dose: 1.39
[2]; 40 mg starting dose
  Hazard ratio for risk of progression versus 60 mg daily starting dose: 1.10
[2]; lower Cl/F (1.3 l/h) versus standard Cl/F (2.3 l/h)
  Hazard ratio for risk of dose modification (DM): 2.07

Read-outs that look alike come from different tables or passages of the source.
